# Results published in ChEMBL document CHEMBL1126779, “Antagonism of 1-(2,5-dimethoxy-4-methylphenyl)-2-aminopropane stimulus with a newly identified 5-HT2- versus 5-HT1C-selective antagonist” (J Med Chem, 1993).
# Target: T1, 5-hydroxytryptamine receptor 2C (Rattus norvegicus, UniProt P08909)
# T1 sequence (P08909 whole entry): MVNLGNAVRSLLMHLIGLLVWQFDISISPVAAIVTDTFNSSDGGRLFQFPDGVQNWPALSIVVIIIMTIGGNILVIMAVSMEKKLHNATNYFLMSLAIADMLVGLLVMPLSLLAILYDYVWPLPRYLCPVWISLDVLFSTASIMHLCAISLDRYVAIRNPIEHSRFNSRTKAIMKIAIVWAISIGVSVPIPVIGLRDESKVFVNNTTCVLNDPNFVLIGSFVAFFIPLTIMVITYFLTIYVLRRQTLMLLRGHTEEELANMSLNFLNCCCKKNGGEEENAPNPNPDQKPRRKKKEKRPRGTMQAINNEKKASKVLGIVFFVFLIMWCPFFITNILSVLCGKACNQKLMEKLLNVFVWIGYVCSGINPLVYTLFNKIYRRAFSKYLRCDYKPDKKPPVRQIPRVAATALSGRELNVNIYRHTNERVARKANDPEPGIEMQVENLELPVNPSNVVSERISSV
# Experiment: Tested for binding affinity against 5-hydroxytryptamine 1C receptor from rat frontal cortical regions using [3H]mesulergine as radioligand
# Procedure, shortened: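 Rat frontal cortex homogenate (male Sprague-Dawley) was washed and preincubated 15 min at 37 °C in 50 mM Tris HCl, 0.5 mM EDTA, 10 mM MgCl2, pH 7.4, with 0.1% ascorbate and 10^-6 M pargyline. Nonspecific binding was set with 1.0 µM mianserin. Tubes ran 15 min at 37 °C in triplicate before filtration.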
compound,measurement,value
O=C(CCCN1CCC2(CC1)C(=O)NCN2c1ccccc1)c1ccc(F)cc1 [SPIPERONE],Ki,1000 nM
